Sequences of proteins named here, by UniProt entry; tags and fusion partners are left off. A change or cut given only in a name is not applied to a line headed by its entry.
UniProt O42275: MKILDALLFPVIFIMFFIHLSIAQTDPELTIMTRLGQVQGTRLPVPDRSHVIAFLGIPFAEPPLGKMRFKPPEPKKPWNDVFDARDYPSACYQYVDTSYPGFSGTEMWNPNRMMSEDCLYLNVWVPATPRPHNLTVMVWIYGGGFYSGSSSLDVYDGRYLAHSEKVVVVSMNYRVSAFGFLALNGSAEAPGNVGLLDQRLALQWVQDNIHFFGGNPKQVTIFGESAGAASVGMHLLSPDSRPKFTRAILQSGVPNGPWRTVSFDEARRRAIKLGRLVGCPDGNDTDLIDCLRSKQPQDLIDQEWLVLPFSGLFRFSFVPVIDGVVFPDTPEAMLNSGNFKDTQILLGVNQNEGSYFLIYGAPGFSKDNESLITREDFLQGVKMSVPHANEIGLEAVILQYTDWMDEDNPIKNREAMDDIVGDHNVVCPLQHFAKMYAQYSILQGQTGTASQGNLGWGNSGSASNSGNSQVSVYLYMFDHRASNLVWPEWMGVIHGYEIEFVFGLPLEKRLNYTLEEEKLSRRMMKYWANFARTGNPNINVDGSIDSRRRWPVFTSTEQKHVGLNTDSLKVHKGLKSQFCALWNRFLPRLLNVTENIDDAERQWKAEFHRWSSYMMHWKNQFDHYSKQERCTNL

In ChEMBL document CHEMBL1122729, “Nonquaternary cholinesterase reactivators. 2. Alpha-heteroaromatic aldoximes and thiohydroximates as reactivators of ethyl methylphosphonyl-acetylcholinesterase in vitro” (1984):

What was measured:
[1] = biological target: Acetylcholinesterase (Electrophorus electricus) (UniProt O42275); test: Compound was evaluated in vitro at 2 uM for inhibition of acetylcholinesterase (AChE)at a pH of 8 in the presence of 7.5*10e-4 acetylthiocholine
[2] = biological target: Acetylcholinesterase (Electrophorus electricus) (UniProt O42275); test: Compound was evaluated in vitro at 10 uM for inhibition of acetylcholinesterase (AChE)at a pH of 8 in the presence of 7.5*10e-4 acetylthiocholine
[3] = biological target: Acetylcholinesterase (Electrophorus electricus) (UniProt O42275); test: Compound was evaluated in vitro at 50 uM for inhibition of acetylcholinesterase (AChE)at a pH of 8 in the presence of 7.5*10e-4 acetylthiocholine
[4] = biological target: Acetylcholinesterase (Electrophorus electricus) (UniProt O42275); test: Compound was evaluated in vitro at 100 uM for inhibition of acetylcholinesterase (AChE)at a pH of 8 in the presence of 7.5*10e-4 acetylthiocholine
[5] = biological target: Acetylcholinesterase (Electrophorus electricus) (UniProt O42275); test: Concentration at 10 uM that inhibits 50%of acetylcholinesterase activity evaluated in vitro at a pH of 8 in the presence of 7.5x10E-4 acetylthiocholine
[6] = biological target: Acetylcholinesterase (Electrophorus electricus) (UniProt O42275); test: Concentration at 25 uM that inhibits 50%of acetylcholinesterase activity evaluated in vitro at a pH of 8 in the presence of 7.5x10E-4 acetylthiocholine
[7] = biological target: Acetylcholinesterase (Electrophorus electricus) (UniProt O42275); test: Concentration at 5 uM that inhibits 50%of acetylcholinesterase activity evaluated in vitro at a pH of 8 in the presence of 7.5x10E-4 acetylthiocholine
[8] = biological target: Acetylcholinesterase (Electrophorus electricus) (UniProt O42275); test: Compound was evaluated in vitro at 25 uM for inhibition of acetylcholinesterase (AChE)at a pH of 8 in the presence of 7.5*10e-4 acetylthiocholine
[9] = biological target: Acetylcholinesterase (Electrophorus electricus) (UniProt O42275); test: Compound was evaluated in vitro at 5 uM for inhibition of acetylcholinesterase (AChE)at a pH of 8 in the presence of 7.5*10e-4 acetylthiocholine
[10] = biological target: Acetylcholinesterase (Electrophorus electricus) (UniProt O42275); test: Compound was evaluated in vitro at 1.50 uM for inhibition of acetylcholinesterase (AChE)at a pH of 8 in the presence of 7.5*10e-4 acetylthiocholine
[11] = biological target: Acetylcholinesterase (Electrophorus electricus) (UniProt O42275); test: Compound was evaluated in vitro at 40 uM for inhibition of acetylcholinesterase (AChE)at a pH of 8 in the presence of 7.5*10e-4 acetylthiocholine
[12] = biological target: Acetylcholinesterase (Electrophorus electricus) (UniProt O42275); test: Compound was evaluated in vitro at 15 uM for inhibition of acetylcholinesterase (AChE)at a pH of 8 in the presence of 7.5*10e-4 acetylthiocholine

Structure (SMILES)	inhibition [1] [%]	inhibition [2] [%]	inhibition [3] [%]	further results
Cc1noc(/C=N/O)n1	5.6			
O/N=C/c1nnc(-c2ccccc2)o1		10.4		
CCN(CC)CCS/C(=N/O)c1nonc1C		8.4	26.9	inhibition [4]: 39.3%
Cc1nsc(/C=N/O)n1	-1.1			
O/N=C/c1cnns1	-4			
O/N=C\c1cnsn1		5.7		
CCN(CC)CCS/C(=N\O)c1nnc(-c2ccccc2)o1	2.53			inhibition [5]: 25.5%; inhibition [6]: 54.2%; inhibition [7]: 16.9%
Cc1nonc1/C=N/O		8.7		
O/N=C/c1nc(-c2ccccc2)no1		1.7		
CCN(CC)CCS/C(=N\O)c1nc(C)no1		19	34.9	inhibition [8]: 22.2%
Cc1nsnc1/C=N\O		7.5		
CCN(CC)CCS/C(=N/O)c1cnsn1	4	10	9.1	inhibition [8]: 17.4%; inhibition [9]: 13.4%
CCN(CC)CCS/C(=N\O)c1nc(-c2ccccc2)no1			84	inhibition [10]: 20.3%; inhibition [11]: 80.6%; inhibition [12]: 62.1%; inhibition [9]: 64.3%
CCN(CC)CCS/C(=N/O)c1nsnc1C		9.97	15.4	inhibition [4]: 25.9%
